B1: TIGIT-E-LC (bispecific antibody)
heavy: not shown
light: EIVLTQSPATLSLSPGERATLSCRASENVGTYISWYQQKPGQAPRLLIYGASNRYTGIPARFSGSGSGTDFTLTISSLEPEDFAVYYCGESYGHLYTFGGGTKVEIKRTVAAPSVFIFPPSDEQLKSGTASVVCLLNNFYPREAKVQWKVDNALQSGNSQESVTEQDSKDSTYSLSSTLTLSKADYEKHKVYACEVTHQGLSSPVTKSFNRGECEPKSSDKTHTSPPSPEVQLVESGGGLVQPGGSLRLSCAASGYKYGVYSMGWFRQAPGKGLEGVSAICSGGRTTYSDSVKGRFTISRDNSNQILYLQMNSLRAEDTAVYYCAARPLWTGDCDLSSSWYKTWGQGTLVTVSS
B2: TIGIT-E-LN (bispecific antibody)
heavy: not shown
light: EVQLVESGGGLVQPGGSLRLSCAASGYKYGVYSMGWFRQAPGKGLEGVSAICSGGRTTYSDSVKGRFTISRDNSNQILYLQMNSLRAEDTAVYYCAARPLWTGDCDLSSSWYKTWGQGTLVTVSSEPKSSDKTHTSPPSPEIVLTQSPATLSLSPGERATLSCRASENVGTYISWYQQKPGQAPRLLIYGASNRYTGIPARFSGSGSGTDFTLTISSLEPEDFAVYYCGESYGHLYTFGGGTKVEIKRTVAAPSVFIFPPSDEQLKSGTASVVCLLNNFYPREAKVQWKVDNALQSGNSQESVTEQDSKDSTYSLSSTLTLSKADYEKHKVYACEVTHQGLSSPVTKSFNRGEC
B3: TIGIT-G9-LN (bispecific antibody)
heavy: not shown
light: EVQLVESGGGLVQPGGSLRLSCAASGYKYGVYSMGWFRQAPGKGLEGVSAICSGGRTTYSDSVKGRFTISRDNSNQILYLQMNSLRAEDTAVYYCAARPLWTGDCDLSSSWYKTWGQGTLVTVSSGGGGSGGGSEIVLTQSPATLSLSPGERATLSCRASENVGTYISWYQQKPGQAPRLLIYGASNRYTGIPARFSGSGSGTDFTLTISSLEPEDFAVYYCGESYGHLYTFGGGTKVEIKRTVAAPSVFIFPPSDEQLKSGTASVVCLLNNFYPREAKVQWKVDNALQSGNSQESVTEQDSKDSTYSLSSTLTLSKADYEKHKVYACEVTHQGLSSPVTKSFNRGEC

By UniProt entry, the sequences of proteins in these tests, tags left out. Residues count along the entry.
UniProt Q08722, 19-323: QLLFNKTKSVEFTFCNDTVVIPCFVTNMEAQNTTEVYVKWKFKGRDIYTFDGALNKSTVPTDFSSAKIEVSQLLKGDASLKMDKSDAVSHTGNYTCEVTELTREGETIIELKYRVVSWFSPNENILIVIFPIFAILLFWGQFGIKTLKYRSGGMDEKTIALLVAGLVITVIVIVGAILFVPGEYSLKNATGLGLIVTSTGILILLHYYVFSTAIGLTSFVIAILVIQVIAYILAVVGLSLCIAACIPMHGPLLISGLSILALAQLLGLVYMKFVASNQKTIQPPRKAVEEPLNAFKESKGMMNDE

For orientation: EC50 means the concentration giving half of the maximal effect. Lower therefore signals an effect from little substance.

For this experiment, the target named is CD47 antigen expressed on CHO-K1 cells (UniProt Q08722 19-323). The experiment in a line: flow.
The molecule B1 returned a concentration for a half-maximal effect (EC50) of 653 pM.

The molecule B2 showed a concentration giving a half-maximal response (EC50) of 370 pM.

The molecule B3 showed an EC50 of 1040 pM.

The values are drawn from patent US20220267475A1 (published 2022).
